Measured values as given in ChEMBL document CHEMBL1140718, “Fragment-based discovery of mexiletine derivatives as orally bioavailable inhibitors of urokinase-type plasminogen activator” (J Med Chem, 2008).

Molecular target: Urokinase-type plasminogen activator (Homo sapiens, UniProt P00749)

**Q.** How did the IC50 turn out when `CCOc1c(Cl)cc(N2CCCCC2)cc1NC(=O)c1cc(C)c(OCCN)c(C)c1` was run?
**A.** Its IC50 is 72 nM.
